System: T lymphocyte transformation
Assay: ConA-induced T lymphocyte transformation of spleen cells from treated mice (MTT)
Format: in vivo
Settings: 3 × 10^5 IU/kg/d i.p. for 28 days, BALB/c mice
Experimental: The BALB/c mice were randomly divided into CMS017 dose I group (200 μg/kg/day), CMS017 dose II group (50 μg/kg/day), recombinant human IL (rhIL)-2 group (3×10^5 IU/kg/day), and saline groups (0.5 ml/day). Twelve mice per group. Test substances were all dissolved in saline and injected intraperitoneally at (i.p.) 0.5 ml/day for 28 continuous days, once per day. The day after the last test substance administration, the mice were sacrificed by cervical dislocation. The spleen was isolated aseptically and manually dispersed in cold D-Hank's solution using an injection needle. The dispersed cell suspension was further sieved through a 100 gauge 150 μm diameter stainless steel sieve. After centrifugation at 200 g for 10 minutes, the supernatant was discarded. The cell pellet was resuspended in 10 volumes of Tris-NH4Cl buffer and then incubated for 10 minutes at room temperature. The suspended cells were collected by centrifugation at 150 g for 10 minutes. The cells were washed 2-4 times with cold D-Hank's solution by resuspending and collecting by centrifugation as described above. The washed cells were then diluted to the desired cell densities in RPMI-1640 culture medium, containing 10% fetal bovine serum. […] An ELISA reader referenced at 630 nm was used to obtain the OD570 nm of each well. […]

Substance: IL-2: recombinant human IL (rhIL)-2, positive control group
- stimulation index (X ± SD): 2.71 ± 0.35

Reference: patent publication US7396817B2, “Biologically active peptides comprising Isoleucyl-valyl-threonyl-asparaginyl-threonyl-threonine (IVTNTT)” (CMS Peptides Patent Holding Company Limited, priority 2003, dated 2008)
